# Data reported in PubChem BioAssay AID504700 (The Scripps Research Institute Molecular Screening Center, 2011).
# Protein sequences, listed by entry. Tags and fused reporters are not part of them.
# UniProt P31323, whole entry, looked up: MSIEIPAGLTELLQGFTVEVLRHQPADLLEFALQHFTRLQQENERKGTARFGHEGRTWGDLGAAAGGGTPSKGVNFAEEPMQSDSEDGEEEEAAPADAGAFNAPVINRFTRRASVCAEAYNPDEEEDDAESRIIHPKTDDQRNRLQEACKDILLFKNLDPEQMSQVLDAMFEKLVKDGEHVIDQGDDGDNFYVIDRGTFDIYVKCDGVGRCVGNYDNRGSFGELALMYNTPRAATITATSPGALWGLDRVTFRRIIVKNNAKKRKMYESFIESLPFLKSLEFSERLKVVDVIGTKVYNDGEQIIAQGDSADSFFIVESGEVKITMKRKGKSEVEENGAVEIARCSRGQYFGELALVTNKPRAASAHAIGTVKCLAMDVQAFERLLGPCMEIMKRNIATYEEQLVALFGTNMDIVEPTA
# This is a selection; strong and weak results do not stand in their true shares. Activity calls are given as the source filed them.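 How the source made its calls: active means activation above a cutoff set at the mean over all compounds plus 3 SD (cut at about 18% in these data); inactive means the rest.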
# Molecular target: cAMP-dependent protein kinase catalytic subunit beta (Homo sapiens) + cAMP-dependent protein kinase type II-beta regulatory subunit (Homo sapiens) (UniProt P22694+P31323)
# Experiment: activators of PKA-R2B holoenzyme, primary screen, biochemical, fluorescence polarization, Cy5-IP20, human (AID 504700);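 further: higher means more holoenzyme dissociation and a rise in polarization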
# Conditions: PKA-R2B holoenzyme dissociation, at 11.4 µM, hits give high values, 0% DMSO only, 100% 113 µM cGMP, R2B truncated from residue 108, S112A mutant
row,Structure (SMILES),activation
1,O=P(Nc1ccccn1)(c1ccc(Br)cc1)c1ccc(Br)cc1,inactive: -5.33%
2,CN(C)C1(CNC(=O)c2ccc(Cl)c(S(N)(=O)=O)c2)CCCCC1,inactive: -6.86%
3,COc1ccc(N)c([N+](=O)[O-])c1[N+](=O)[O-],inactive: -0.7%
4,O=P(Nc1nc2ccccc2s1)(c1ccccc1)c1ccccc1,inactive: -1.55%
5,C[C@H]1OP(=O)(Oc2ccccc2)[C@H](O)[C@H](O)[C@H]1N=[N+]=[N-] (stereo not given in full),inactive: -2.09%
6,O=[As](O)(c1ccccc1)c1ccc(O)cc1,inactive: -6.78%
7,O=[N+]([O-])c1ccc(O)c(/C=N/Nc2ccc([N+](=O)[O-])cc2[N+](=O)[O-])c1,inactive: -9.25%
8,CC(=O)NC(SC(=S)N(C)C)C(Cl)(Cl)Cl (stereo not given),inactive: 2.26%
9,O=[N+]([O-])c1ncn(CCn2cnc([N+](=O)[O-])n2)n1,inactive: -8.62%
10,O=C(OC1CN2CCC1CC2)c1cccc(Cl)c1 (stereo not given),inactive: 4.13%
11,Nc1ccc([As](=O)(O)c2ccc([N+](=O)[O-])cc2)cc1,inactive: -4.82%
12,C(Cc1nn[nH]n1)Cc1nn[nH]n1,inactive: -5.63%
13,CC(C)C(=O)NC(Sc1ccccc1)C(Cl)(Cl)Cl (stereo not given),inactive: -9.44%
14,O=P(Nc1nccs1)(c1ccccc1)c1ccccc1,inactive: 10.9%
15,c1nnnn1CCn1cnnn1,active: 18.6%
16,O=P1(Nc2nc3ccc(Cl)cc3s2)COc2ccccc2O1 (stereo not given),inactive: 2.42%
17,CCOc1ccc(C2=NCC(CBr)S2)cc1 (stereo not given),inactive: 2.38%
18,CC(C)(C)C(=O)NC(Sc1ccccc1)C(Cl)(Cl)Cl (stereo not given),inactive: 8.06%
19,CCc1cc(O)c([N+](=O)[O-])c(C)c1[N+](=O)[O-],inactive: -5.87%
20,Cc1ccccc1CN(C)C(=O)COC(=O)C(O)(c1ccccc1)c1ccccc1,inactive: -1.72%
21,C[C@@H]1C=CCP(=O)(Oc2ccccc2)O1 (stereo not given in full),inactive: -10.3%
22,C[C@H]1OP(=O)(Oc2ccccc2)C[C@@H]2O[C@@H]21 (stereo not given in full),inactive: -2.15%

row,Structure (SMILES),activation
1,N#C/C(=C\c1ccc(N(CCBr)CCBr)cc1)C(N)=O,inactive: 2.5%
2,CC(=O)c1ccc(N2CC2c2ccncc2)cc1 (stereo not given),inactive: -1.06%
3,COC(=O)C1(C)COP(=O)(NCc2ccccc2)OC1 (stereo not given),inactive: 2.82%
4,CC(=O)Nc1ccc([As](=O)(O)O)c(O)c1,inactive: -1.66%
5,CC(=O)Nc1ccc(Oc2c([N+](=O)[O-])cc([N+](=O)[O-])cc2[N+](=O)[O-])cc1,inactive: -4.81%
6,CCNC(=S)/N=C(\N)N[N+](=O)[O-],inactive: -2.39%
7,O=C(NC1CCS(=O)(=O)C1)NP(=S)(Oc1ccccc1)Oc1ccccc1 (stereo not given),inactive: -5.61%
8,O=P1(N(CCCl)CCCl)OCCC2CCCCN21 (stereo not given),inactive: -14.2%
9,O=C(OC1CN2CCC1CC2)c1ccccc1 (stereo not given),inactive: -7.53%
10,CCC(=O)N1C2C3N(C(=O)CC)C1C1N(C(=O)CC)C(C(N1C(=O)CC)N3C(=O)CC)N2C(=O)CC,inactive: 2.63%
11,COC(=O)c1cc2c(s1)N=C(c1ccccc1)N(C)P2(=O)N1CCOCC1 (stereo not given),inactive: 3.19%
12,CC(=O)NC(SC(=S)N(CC(C)C)CC(C)C)C(Cl)(Cl)Cl (stereo not given),inactive: -7.89%
13,Cc1ccc(OP(=O)(Nc2ccccn2)Oc2ccc(C)cc2)cc1,inactive: -1.24%
14,Cc1ccccc1OP(=O)(Nc1ccccn1)Oc1ccccc1C,inactive: -7.47%
15,CC(NC(=O)COC(=O)C(O)(c1ccccc1)c1ccccc1)c1ccccc1 (stereo not given),inactive: 5.71%
16,CN(C)C(=O)Oc1noc2ccccc12,inactive: 1.35%
17,O=c1c2cc([N+](=O)[O-])ccc2[nH]c2c([N+](=O)[O-])cc([N+](=O)[O-])cc12,inactive: -6.37%
18,CN(C)P(=O)(N(C)C)n1c(Nc2ccccc2)nnc1-c1ccccc1,inactive: -2.1%
19,O=P(Nc1nc2ccc(Cl)cc2s1)(c1ccccc1)c1ccccc1,inactive: 2.52%
20,O=C(O)c1ccccc1[As](=O)(O)O,inactive: -1.59%
21,CC(=O)Nc1ccc([As](=O)(O)O)cc1,inactive: -13.8%
22,CCCC1OP(N)(=O)OCC1CC (stereo not given),inactive: 1.42%

row,Structure (SMILES),activation
1,CCOP(=O)(Nc1ccccc1)OCC,inactive: -4.28%
2,Cc1cc(SC(NC(=O)c2ccc(F)cc2)C(Cl)(Cl)Cl)ncn1 (stereo not given),inactive: -4.83%
3,Cc1ccc(NP(=O)(Oc2ccccc2F)Oc2ccccc2F)nc1,inactive: -7.9%
4,CN(C(=O)Cc1ccc(Cl)c(Cl)c1)[C@H]1CCCC[C@@H]1N1CCCC1,inactive: 10.2%
5,Nc1cccc2ccc([As](=O)(O)O)cc12,inactive: -11%
6,CCN(N=Nc1nonc1N)c1nonc1N,inactive: -3.24%
7,CN(C(=O)Cc1ccc(Cl)c(Cl)c1)[C@H]1CCCC[C@H]1N1CCCC1,inactive: -1.74%
8,Cc1ccc(N/C(=N/P(=O)(N2CCOCC2)N2CCOCC2)N2CCOCC2)cc1,inactive: -6.97%
9,NC(=O)c1cc([N+](=O)[O-])cc([N+](=O)[O-])c1N,inactive: -3.72%
10,Clc1ccc(Cl)c(NC2=NCC(CBr)S2)c1 (stereo not given),inactive: -5.33%
11,CN1CCCC(OC(=O)C(c2ccccc2)c2ccccc2)C1 (stereo not given),inactive: 4.83%
12,COc1ccccc1OP(=O)(Nc1ccc(C)cn1)Oc1ccccc1OC,inactive: -3.1%
13,Oc1ccccc1CNc1ccccn1,inactive: -15.9%
14,O=C(NC(Sc1ccncn1)C(Cl)(Cl)Cl)c1ccccc1 (stereo not given),inactive: 2.21%
15,CC(C)CC(=O)NC(Sc1ccc(Cl)cc1)C(Cl)(Cl)Cl (stereo not given),inactive: -8.49%
16,Nc1cc(N)c2nonc2c1[N+](=O)[O-],inactive: -0.59%
17,COc1ccc(C2=NCC(CBr)S2)cc1 (stereo not given),inactive: -2.86%
18,Cc1ccc(NP(=O)(Oc2ccccc2)Oc2ccccc2)nc1,inactive: -7.81%
19,CCc1nc2c(n1)c1c(non1O)c1c2no[n+]1[O-],inactive: 8.88%
20,O=[N+]([O-])c1cc([N+](=O)[O-])c(CCNc2ccccc2)c([N+](=O)[O-])c1,inactive: 11.2%
21,O=[N+]([O-])c1cccc2n[nH]nc12,inactive: -5.57%
